Sequences of proteins named here, by UniProt entry; tags and fusion partners are left off. Residues count along the entry.
UniProt P03372, 307-554 limits assumed: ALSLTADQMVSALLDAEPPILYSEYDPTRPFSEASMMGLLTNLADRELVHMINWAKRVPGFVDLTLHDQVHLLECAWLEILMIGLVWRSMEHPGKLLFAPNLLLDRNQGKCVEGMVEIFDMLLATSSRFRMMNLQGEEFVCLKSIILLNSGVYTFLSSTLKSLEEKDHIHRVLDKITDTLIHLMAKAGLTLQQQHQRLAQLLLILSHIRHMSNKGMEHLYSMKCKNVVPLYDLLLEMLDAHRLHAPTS

The molecules below were run against Estrogen Receptor Alpha Ligand binding domain (ER alpha-LBD (GST)) (Homo sapiens, UniProt P03372) (assay: ERα Binding Assay (LanthaScreen TR-FRET competition)). Conditions: read-out: ER binding IC50, competitive displacement of Fluormone ES2 tracer from recombinant human ER alpha-LBD (residues 307-554), 4 hours at room temperature.
Protocol: The ability of compounds to bind to isolated Estrogen Receptor Alpha Ligand binding domain (ER alpha-LBD (GST)) was assessed in competition assays using a LanthaScreen™ Time-Resolved Fluorescence Resonance Energy Transfer (TR-FRET) detection end-point. For the LanthaScreen TR-FRET endpoint, a suitable fluorophore (Fluormone ES2, ThermoFisher, Product code P2645) and recombinant human Estrogen Receptor alpha ligand binding domain, residues 307-554 (expressed and purified in-house) were used to measure compound binding. The assay principle is that ER alpha-LBD (GST) is added to a fluorescent ligand to form a receptor/fluorophore complex. A terbium-labelled anti-GST antibody (Product code PV3551) is used to indirectly label the receptor by binding to its GST tag, and competitive binding is detected by a test compound's ability to displace the fluorescent ligand, resulting in a loss of TR-FRET signal between the Th-anti-GST antibody and the tracer. The assay was performed as follows with all reagent additions carried out using the Beckman Coulter BioRAPTR FRD microfluidic workstation: • 1. Acoustic dispense 120 nL of the test compound into a black low volume 384 well assay plates. • 2. Prepare 1×ER alpha-LBD/Tb-anti-GST Ab in ES2 screening buffer and incubate for 15 minutes. • 3. Dispense 6 μL of the 1×[…]/Th-anti-GST Ab reagent into each well of the assay plate followed by 6 μL of Fluorophore reagent into each well of the assay plate • 4. Cover the assay plate to protect the reagents from light and evaporation, and incubate at room temperature for 4 hours. • 5. Excite at 337 nm and measure the fluorescent emission signal of each well at 490 nm and 520 nm using the BMG PheraSTAR.
Compounds were dosed directly from a compound source microplate containing serially diluted compound (4 wells containing 10 mM, […] and 10 nM final compound respectively) to an assay microplate using the Labcyte Echo 550. The Echo 550 is a liquid handler that uses acoustic technology to perform direct microplate-to-microplate transfers of DMSO compound solutions and the system can be programmed to transfer multiple small nL volumes of compound from the different source plate wells to give the desired serial dilution of compound in the assay which is then back-filled to normalise the DMSO concentration across the dilution range.
In total 120 nL of compound plus DMSO were added to each well and compounds were tested in a 12-point concentration response format over a final compound concentration range of 10, 2.917, 1.042, 0.2083, 0.1, 0.0292, 0.0104, 0.002083, 0.001, 0.0002917, 0.0001042, and 0.00001 μM respectively. TR-FRET dose response data obtained with each compound was exported into a suitable software package (such as Origin or Genedata) to perform curve fitting analysis. Competitive ER alpha binding was expressed as an IC50 value. This was determined by calculation of the concentration of compound that was required to give a 50% reduction in tracer compound binding to ER alpha-LBD.
`C[C@@H]1Cc2c([nH]c3ccccc23)[C@@H](c2cnc(N3CCC(CCCN4C[C@H]5C[C@@H]4CN5c4ccc5c(c4)CN(C4CCC(=O)NC4=O)C5=O)CC3)nc2)N1CC(C)(C)F` (stereo partly shown) gave an IC50 of 3.9 nM.
Work on `C[C@@H]1Cc2c([nH]c3ccccc23)[C@@H](c2cnc(N3CCC(CCN(C)C4CN(c5ccc6c(c5)CN(C5CCC(=O)NC5=O)C6=O)C4)CC3)nc2)N1CC(C)(C)F` (stereo partly shown) yielded an IC50 of 3.3 nM.
`C[C@@H]1Cc2c([nH]c3ccccc23)[C@@H](c2cnc(N3CCC4(CC3)CC4CN3CCN(c4ccc5c(c4)CN(C4CCC(=O)NC4=O)C5=O)CC3)nc2)N1CC(C)(C)F` (stereo partly shown) was tested, and the IC50 was 5.1 nM.
`C[C@@H]1Cc2c([nH]c3ccccc23)[C@@H](c2cnc(N3CCC4(CC3)CC(CN3CCN(c5ccc6c(c5)CN(C5CCC(=O)NC5=O)C6=O)CC3)C4)nc2)N1CC(C)(C)F` (stereo partly shown) was tested, and the IC50 was 2.3 nM.
Molecule `CC(C1CCN(c2ncc([C@@H]3c4[nH]c5ccccc5c4C[C@@H](C)N3CC(C)(C)F)cn2)CC1)N1CCN(c2ccc3c(c2)CN(C2CCC(=O)NC2=O)C3=O)CC1` (stereo partly shown) has an IC50 of 3.2 nM.
Work on `C[C@@H]1Cc2c([nH]c3ccccc23)[C@@H](c2cnc(N3CCC(CN4CC5(C4)CN(c4ccc6c(c4)CN(C4CCC(=O)NC4=O)C6=O)C5)CC3)nc2)N1CC(C)(C)F` (stereo partly shown) yielded an IC50 of 5.4 nM.

Same assay, conditions: read-out: ER binding IC50, competitive displacement of Fluormone ES2 tracer from recombinant human ER alpha-LBD (residues 307-554), 4 hours at room temperature, tested form: formate
`C[C@@H]1Cc2c([nH]c3ccccc23)[C@@H](c2cnc(N3CCC4(CC3)CN(CC3CCN(c5ccc6c(c5)CN(C5CCC(=O)NC5=O)C6=O)CC3)C4)nc2)N1CC(C)(C)F` (stereo partly shown) was tested, and the IC50 was 12.3 nM.

From patent US20220169643A1, “ESTROGEN RECEPTOR DEGRADING PROTACS” (AstraZeneca AB, priority 2019, published 2022)
